Experimental data published in ChEMBL document CHEMBL1125505, “Nucleosides and nucleotides. 112. 2-(1-Hexyn-1-yl)adenosine-5'-uronamides: a new entry of selective A2 adenosine receptor agonists with potent antihypertensive activity” (J Med Chem, 1992).

By UniProt entry, the sequences of proteins in these tests, tags left out.
UniProt P25099, whole entry: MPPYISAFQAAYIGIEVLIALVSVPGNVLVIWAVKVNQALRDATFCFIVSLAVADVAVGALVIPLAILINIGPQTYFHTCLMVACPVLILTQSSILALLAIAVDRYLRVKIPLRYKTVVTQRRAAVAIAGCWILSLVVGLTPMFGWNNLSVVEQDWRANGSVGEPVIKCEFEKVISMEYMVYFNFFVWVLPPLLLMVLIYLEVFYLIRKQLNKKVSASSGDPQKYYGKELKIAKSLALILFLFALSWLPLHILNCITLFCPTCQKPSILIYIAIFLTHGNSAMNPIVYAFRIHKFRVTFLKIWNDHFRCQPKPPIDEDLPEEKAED

Molecular target: Adenosine receptor A1 (Rattus norvegicus, UniProt P25099)
Assay: Binding affinity against adenosine A1 receptor from rat brain membranes using [3H]cyclohexyladenosine as radioligand.

SMILES | Ki [nM]
Nc1nc(Nc2ccccc2)nc2c1ncn2[C@@H]1O[C@H](CO)[C@@H](O)[C@H]1O | 529
CCNC(=O)[C@H]1O[C@@H](n2cnc3c(N)nc(NCCc4ccc(CCC(=O)O)cc4)nc32)[C@H](O)[C@@H]1O [CGS-21680] | 1140
